From US9120797B2, “Process for preparing spirocyclic cyclohexane compounds, compositions containing such compounds and method of using such compounds” (dated 2015)

Test system: mice
Assay: Tail flick test in mice
Settings: dose 1 mg/kg, % of maximum possible antinociceptive effect

CN(C)C1(c2ccccc2)CCC2(CC1)NCCc1c2[nH]c2ccc(F)cc12 (stereo not shown)
Tail flick (mouse, i.v.) % inhibition (dose [mg/kg]): 89% (1)
